Results published in article PMC3593252 (ACS medicinal chemistry letters, 2013).

Tested on: acetylated tubulin, acetylated histone H3, acetylated histone H4 and p21 in MDA-MB-231 cell lines
Assay: Western blot analysis in MDA-MB-231 cell line
Assay type: cell-based
Details: 1 μM, 3 h vs 24 h

## O=C(CCCCCCC(=O)Nc1ccccc1)NO [SAHA, vorinostat, reference compound]
  effect on histone H4 acetylation with time: decreased with time
